Most compounds without a hit are left out; they make up all but 1.5% or so of the library.
PGC1a acetyl inh = modulators of PGC1a acetylation. inhibition, % at 15.6 µM. U2OS PGC1a acetylation, AlphaScreen anti-acetyl-lysine; with virally co-expressed GCN5 acetyltransferase. actives 0.17% (n = 350,000);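 active = every replicate shows inhibition of at least 40%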;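 also: 0% = neutral control wells and 100% = positive control wells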
Cneo AK release = causes C. neoformans cell lysis. actives 0.2% (n = 360,000). adenylate kinase release luminescence, 4 h; normalised: neutral wells 0, clomiphene wells 100. AID 651654. lysis activity, % at 15 µM;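 active = mean lysis activity across replicates of at least 80%, whatever share of replicates individually reach that level; inactive = mean lysis activity below 80%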
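Schedule: static 4 h at 37 °C with compound, 1 h detection; system: C. neoformans cells; benchmarks: Clomiphene as positive control; buffer or medium: fresh YPD medium; measure: luminescence rise reflecting yeast cell lysis; measured by: luminescent adenylate kinase detection reagent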
HIV Env fusion = inhibitors of HIV Env-mediated cell fusion; HeLa-JRFL Env/CEM21 cell fusion, luciferase; inhibition, % at 12.3 µM; actives 1.1% (n = 360,000); AID 651610;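 active = mean replicate inhibition score of at least 50 and every replicate individually at or above 50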;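 also: 0% = plate neutral controls and 100% = maraviroc near 300 nM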
Yeast UUG start = modulators of start codon recognition fidelity in yeast; S. cerevisiae UUG-firefly luciferase reporter, luminescence/redox ratio; AID 602363; 350,000 tested, 0.13% active; activity score, % at 18.7 µM;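 active = replicate mean at a twofold rise or more, about +100% in these data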;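 also: firefly luciferase made from a UUG start codon reports start codon fidelity; reporter light over untreated wells divided by growth signal over untreated wells; some hits fall short of that in this replicate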
FN deposition inh = fibronectin deposition inhibition | AH1F fibroblasts, Alexa488-fibronectin deposition fluorescence, overnight | inhibition, % at 12.6 µM | actives 0.086% (n = 350,000) | AID 743247;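 active = mean inhibition across replicates of 30% or more, regardless of how many single replicates reach that level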;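 also: positive control wells lacked labelled fibronectin entirely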
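Test system: AH1F fibroblast monolayer depositing Alexa488-labelled fibronectin into matrix. Input: 10000 cells per well. Technique: fluorescence, ex 485 nm, em 525 nm. Buffer or medium: DMEM plus 2% serum, read in PBS. Timing: 1 h cell adhesion before compound, then overnight fibronectin incubation. Compound: single dose, pinned. Read-out basis: inhibition from reduced deposited-fibronectin fluorescence.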
miR-122 sensor = blocks miR-122 activity in Huh7 sensor cells | Huh7 miR-122 Renilla luciferase sensor, 48 h; neutral wells = 0, positive control = 100 | activation (reporter increase), % at 12.5 µM | actives 0.3% (n = 340,000) | AID 602342;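 active = mean replicate activation score at least 90 and every replicate individually at or above 90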;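 also: higher luciferase means less miR-122 activity so hits act as miR-122 inhibitors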
The depositor's hits bear a star; · = no result; [ ] = dose if it differs, or a comment.

cpd | smiles | PGC1a acetyl inh | Cneo AK release | HIV Env fusion
1 | COc1cc([C@@H]2C[C@H]3CN(c4ccccc4)C(=O)[C@]34CCCN24)cc(OC)c1OC | 0.6 | · | 20.6
2 | COc1ccccc1-n1cc([C@@H]2C[C@H]3CN(c4ccccc4)C(=O)[C@]34CCCN24)cn1 | 7.6 | · | 58.6*
3 | O=C1[C@H]2[C@@H](c3ccc(F)cc3)N3C(=O)N(c4cccc(Br)c4)C(=O)[C@@]3(Cc3ccccc3)[C@H]2C(=O)N1C1CCCCC1 | -16.0 | -1.8 | 107.4*
4 | O=C1[C@H]2[C@@H](c3ccc(Cl)cc3)N3C(=O)N(c4cccc(Cl)c4)C(=O)[C@@]3(Cc3ccccc3)[C@H]2C(=O)N1C1CCCCC1 | 2.5 | -1.7 | 96.8*
5 | Cc1ccc(N2C(=O)N3[C@H](c4ccc(F)cc4)[C@@H]4C(=O)N(C5CCCCC5)C(=O)[C@@H]4[C@]3(Cc3ccccc3)C2=O)cc1 | · | 0.6 | 55.8*
6 | O=C1[C@H]2[C@@H](c3ccc(F)cc3)N3C(=O)N(c4cccc(F)c4)C(=O)[C@@]3(Cc3ccccc3)[C@H]2C(=O)N1C1CCCCC1 | 6.6 | 1.5 | 95.0*
7 | CCN1C(=O)[C@H]2[C@@H](c3ccc(C)cc3)N3C(=O)N(c4ccc(C)cc4)C(=O)[C@@]3(Cc3ccccc3)[C@H]2C1=O | 3.2 | 0.9 | -78.5
8 | Cc1cccc([C@@H]2[C@@H]3C(=O)N(Cc4ccccc4)C(=O)[C@@H]3[C@]3(Cc4ccccc4)C(=O)N(c4cccc(Cl)c4)C(=O)N23)c1 | · | -0.6 | -206.1
9 | CO[C@H]1CN(C)C(=O)c2ccc(NS(C)(=O)=O)cc2OC[C@H](C)N(C(=O)CC2CC2)C[C@@H]1C | -0.6 | 3.0 | ·
10 | C=CCNc1oc(-c2ccc(OCC)cc2)nc1C#N | -1.3 | -2.0 | ·

cpd | Yeast UUG start | FN deposition inh | miR-122 sensor
1 | · | 8.2 | -4.0
2 | · | -4.6 | 36.8
3 | 4.4 | -0.4 | 5.7
4 | -7.1 | -2.0 | -8.0
5 | -20.0 | -0.7 | ·
6 | -20.6 | -3.8 | -2.6
7 | -17.9 | 3.9 | -6.3
8 | 1.2 | -8.8 | ·
9 | -14.7 | 0.3 | 5.1[16.7 µM]
10 | -14.3 | · | -1.9

Some entries already given, reduced to Cneo AK release, HIV Env fusion and miR-122 sensor:
No. | compound | Cneo AK release | HIV Env fusion | miR-122 sensor
4 | O=C1[C@H]2[C@@H](c3ccc(Cl)cc3)N3C(=O)N(c4cccc(Cl)c4)C(=O)[C@@]3(Cc3ccccc3)[C@H]2C(=O)N1C1CCCCC1 | -1.7 | 96.8* | -8.0
10 | C=CCNc1oc(-c2ccc(OCC)cc2)nc1C#N | -2.0 | · | -1.9
2 | COc1ccccc1-n1cc([C@@H]2C[C@H]3CN(c4ccccc4)C(=O)[C@]34CCCN24)cn1 | · | 58.6* | 36.8

Remaining list, next part
cpd | smiles | PGC1a acetyl inh | Cneo AK release | HIV Env fusion
11 | CN(C)S(=O)(=O)c1ccc2c(c1)nc(CCC(=O)NCC1CCCCC1)n2C | -7.2 | 0.9 | 20.7
12 | CN(C)S(=O)(=O)c1ccc2c(c1)nc(CCC(=O)NCc1ccc(Cl)cc1)n2C | 7.6 | · | 6.0
13 | COc1nc(-c2ccccc2Cl)ccc1C#N | 0.9 | -1.4 | 56.1*
14 | COC(=O)c1c(NC(=O)CS(=O)(=O)c2ccccc2)sc(C)c1C | · | · | -14.5
15 | COc1ccc(OC)c(Nc2cc(C)nc3nc(C)nn23)c1 | 13.0 | 0.3 | -33.8
16 | COc1ccc(Nc2cc(C)nc3nc(C)nn23)c(OC)c1 | 8.4 | 1.4 | -3.1
17 | CCOC(=O)CN(C(=O)CSc1nnnn1C)c1ccccc1 | -8.1 | 0.4 | 70.7*
18 | Nc1ccccc1-c1nc2ccccc2s1 | -6.9 | 20.7 | -259.0
19 | COc1ccc(N=C2SCC(c3ccc([N+](=O)[O-])cc3)=NN2CCO)cc1 | -12.3 | · | 8.6
20 | COc1ccc(N=c2scc(-c3ccc(OC)cc3)n2CCO)cc1 | 5.0 | -1.5 | 71.3*

cpd | Yeast UUG start | FN deposition inh | miR-122 sensor
11 | -17.7 | 4.7 | 164.0*
12 | · | -16.4 | 11.4
13 | -16.5 | · | -10.3
14 | · | -3.6 | ·
15 | -17.2 | 1.0 | 106.8*
16 | -5.2 | 1.1 | -1.6
17 | 1.8 | 5.6 | 1.6
18 | -14.5 | 2.5 | -8.7
19 | · | 8.9 | ·
20 | -9.4 | 4.8 | 5.7

Additional results follow.
cpd | smiles | PGC1a acetyl inh | Cneo AK release | HIV Env fusion
21 | OCCCn1c(-c2ccccc2)csc1=Nc1ccccc1 | · | -0.9 | 23.6
22 | COc1ccc(N=C2SCC(c3ccc(C)cc3)=NN2CCO)cc1 | 78.3* | · | 7.7
23 | O=S(=O)(NC1CCCCC1N1CCN(c2ccc(F)cc2)CC1)c1ccc(Cl)cc1 (stereo not given) | -22.8 | 0.7 | ·
24 | CCC(=O)N(C)C[C@@H]1Oc2ncc(C#CCc3ccccc3)cc2C(=O)N([C@H](C)CO)C[C@@H]1C | 100.6* | -4.0 | 9.2[16.7 µM]
25 | CCC(=O)N(C)C[C@H]1Oc2ncc(C#CCc3ccccc3)cc2C(=O)N([C@H](C)CO)C[C@H]1C | 1.0 | -5.3 | 4.0[16.7 µM]
26 | CCCNC(=O)N(C)C[C@@H]1Oc2ncc(C#CCc3ccccc3)cc2C(=O)N([C@@H](C)CO)C[C@@H]1C | -6.5 | 96.8* | 2.5[16.7 µM]
27 | C[C@@H]1CN([C@@H](C)CO)C(=O)c2cc(C#CCC3CCCC3)cnc2O[C@H]1CN(C)Cc1ccccn1 | -5.1 | 11.7 | 17.5[16.7 µM]

cpd | Yeast UUG start | FN deposition inh | miR-122 sensor
21 | -10.8 | 12.1 | 7.3
22 | · | 1.0 | ·
23 | -9.9 | · | -8.2
24 | 3.0 | · | 28.9[16.7 µM]
25 | 7.0 | · | 5.4[16.7 µM]
26 | 36.5 | · | 3.0[16.7 µM]
27 | 14.4 | -4.7 | 0.1[16.7 µM]

Compound activity deposited in PubChem BioAssay by Broad Institute.
